ClpP mod = qHTS Assay for Activators of ClpP; purified B. subtilis ClpP, FRET peptide cleavage, 20 min; 340,000 tested, 1.9% active; AID 651965, 2013; ATP-dependent Clp protease proteolytic subunit (Bacillus subtilis (strain 168)), P80244; Potency, µM (highest dose often 57.5 µM), without a hit: at the highest dose activity change, negative = active; active means well fitted falling curve with a large enough effect; inconclusive means small, poorly fitted or top-dose-only effect; inactive means no such curve, though single readings can be large or run the other way; further: potency means the concentration at half of the fitted maximal effect; the source files actives as falling curves though it sought activators and does not explain the sign; nearly all actives have a fitted effect of over 65% in size
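FRET quenching reversal measured ClpP activation: 10 microg/mL B. subtilis ClpP at pH 8 with the FRET-FV decapeptide, read at 430 nm after 320 nm excitation. The 20-min minus 0-min signal was scaled between DMSO/no-enzyme wells and ADEP (5.8 microM final).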
miR-21 reporter = miR-21 reporter, rising signal; Potency, µM (top dose mostly 38.3 µM), for the others: at the highest dose reporter change, positive = more light; 340,000 tested, under 10 active; HeLa miR-21 FLuc reporter, luciferase, 48 h; active = well fitted rising curve with a large enough effect; inconclusive = small, poorly fitted or top-dose-only effect; inactive = no such curve, though single readings can be large or run the other way;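 note: % of control where 0% means no effect; miR-21 action dims this reporter so a rising signal means less miR-21 action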
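Using DMEM plus 10% FBS, HeLa miR-21-FLuc cells are incubated with test compounds (final up to about 40uM) for 48 hours; firefly luciferase signal is then imaged following reagent-mediated lysis.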
Nrf2 activator = activators of Nrf2 (ARE) signaling | AREc32 ARE-luciferase reporter (MCF7-derived line), luminescence, 24 h | Potency, µM (doses to about 46.1 µM), without a hit: at the highest dose activation, most hits filed as activators | 410,000 tested, 0.31% active; further: potency means the concentration at half of the fitted maximal effect; % of control where 0% means no effect; nearly all actives have a fitted effect of over 65% in size
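AREc32_Fluc, 1000 cells/well, OPTI-MEM + 5% FBS, o/n 37 deg C 5% CO2; 23 nL cpd by pin tool, 24 hr; Steady-Glo 30 min RT, luminescence.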
A549 viability = counter-screen for Nrf2 inhibitors: cytotoxicity in A549 cells. Potency, µM (highest dose often 46 µM), without a hit: at the highest dose activity change, negative = cytotoxicity, usual class: inhibitors. A549 ARE-Fluc cells, CellTiter-Fluor viability, 18-24 h. 390,000 tested, 0.16% active. AID 504648; further: potency means the concentration at half of the fitted maximal effect; on the % scale 0 is the no-effect control and ±100 the full control effect
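A549 ARE_Fluc cells in 5% FBS OPTI-MEM were exposed to compounds in concentration-response for 18-24 h at 37 deg C. Viability was read by CellTiter-Fluor fluorescence (Ex 405/Em 525) after 30 min, before the luciferase read.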
Nrf2 block = inhibitors of Nrf2 signaling | A549 ARE-Fluc reporter, luciferase luminescence, 18-24 h | Potency, µM (titrated, usually from 46 µM), inactives show top-dose activity change, negative = inhibition, hits mostly inhibitors | 360,000 tested, 2.1% active; further: potency means the concentration at half of the fitted maximal effect; on the % scale 0 is the no-effect control and ±100 the full control effect; nearly all actives have a fitted effect of over 60% in size
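Nrf2 function is reported as luminescence of an ARE-controlled luciferase in A549 cells. Compounds were tested at several concentrations, and a CellTiter-Fluor read on the same wells flagged cytotoxicity.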
TCR act = T cell receptor activation; primary human leukocytes, anti-CD3, IL-2 HTRF, 48 h; AID 504894; Potency, µM (doses to about 9.22 µM), inactives show at the highest dose activation of IL-2 secretion, hits mostly activators; 330,000 tested, under 10 active; further: % of control where 0% means no effect
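Readout: HTRF IL-2, Eu-cryptate/d2 antibody pair, 320nm excitation, 665nm emission. Stimulus: a-CD3 beads, no co-stimulation. Cells: primary human leukocytes. Exposure: 48 hr with compound.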
Starred values were filed as active, the others as inactive; ? = inconclusive; nt = no result given; [ ] = remark or other dose. The list is not random: actives were taken first. Their share in the collection is about 3.7%. Unless noted, the call rests on the fitted dose curve; in most records, active means well fitted curve in the direction sought with a large enough effect; inconclusive means small, poorly fitted or top-dose-only effect, or another doubt; inactive means no such curve, though single readings can be large; an effect the other way counts as inactive or inconclusive.

Sequences of proteins named here, by UniProt entry; tags and fusion partners are left off.
ATP-dependent Clp protease proteolytic subunit (Bacillus subtilis (strain 168)), P80244, UniProt P80244, whole entry, looked up: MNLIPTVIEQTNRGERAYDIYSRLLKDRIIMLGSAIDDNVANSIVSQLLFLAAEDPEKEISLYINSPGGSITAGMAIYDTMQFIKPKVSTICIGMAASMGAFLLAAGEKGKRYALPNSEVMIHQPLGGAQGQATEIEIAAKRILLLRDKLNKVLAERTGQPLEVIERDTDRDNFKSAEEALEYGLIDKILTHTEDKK

A first look (two entries):
1) Cc1cccn2cc(-c3ccc(F)cc3)cc12
2) Cc1cccn2cc(-c3ccc(F)cc3)nc12

assay / entry | 1 | 2
miR-21 reporter | -11% | -25%
Nrf2 activator | 2% | 2%
Nrf2 block | ? | ?
ClpP mod | nt | 18µM*
TCR act | 3% | 0%
A549 viability | -17% | 3%

All compounds of this part, previewed entries included:
1) Cc1cccn2cc(-c3ccc(F)cc3)cc12
2) Cc1cccn2cc(-c3ccc(F)cc3)nc12
3) COc1ccc(-c2cn3cccc(C)c3n2)cc1Br
4) COc1cc(OC)c(-c2oc3ccccc3c(=O)c2O)c(OC)c1
5) CCOC(=O)c1c(C)oc2c1c(C=NCCC(=O)O)c(O)c1ccccc12
6) Cc1ccc2oc(-c3cccc(NC(=O)c4sc5c([N+](=O)[O-])cccc5c4Cl)c3)nc2c1

assay / entry | 1 | 2 | 3 | 4 | 5 | 6
miR-21 reporter | -11% | -25% | -45% | nt | -6% | -6%
Nrf2 activator | 2% | 2% | 8% | 2% | 5% | 1%
Nrf2 block | ? | ? | ? | -25% | 21µM* | 9%
ClpP mod | nt | 18µM* | ? | 28µM* | nt | -1%
TCR act | 3% | 0% | -1%[46.1 µM] | 8% | 2% | nt
A549 viability | -17% | 3% | 3% | -9% | ? | -1%

7) N#CCCn1cc(C(=O)CN2C(=O)NC3(CCc4ccccc43)C2=O)c2ccccc21 (centres undefined)
8) O=C(O)C(SC(C(=O)O)c1ccccc1)c1ccccc1 (centres undefined)
9) Cc1cccc(S(=O)(=O)c2cn(Cc3ccccc3)c3cc(N4CCC(C)CC4)c(F)cc3c2=O)c1
10) Cc1cccc(C(=O)NNC(=O)c2cc3cc4ccccc4nc3s2)c1
11) O=C(NNC(=O)c1cc2cc3ccccc3nc2s1)c1cccc(Cl)c1
12) CC(/C=C/C(=O)c1ccc(C)cc1)=C\c1ccccc1

assay / entry | 7 | 8 | 9 | 10 | 11 | 12
miR-21 reporter | nt | nt | 0% | -17% | -28% | -14%
Nrf2 activator | 8% | 0% | -1% | 5% | -1% | 11µM*
Nrf2 block | nt | 9% | 13% | nt | nt | 17%
ClpP mod | -1% | 28µM* | 5% | 22µM* | -10% | 1%
TCR act | nt | 5% | nt | 2% | 0% | -3%
A549 viability | nt | 1% | -3% | ? | -28% | -7%

Only Nrf2 activator, miR-21 reporter and TCR act (3 entries from above):
nr | SMILES | Nrf2 activator | miR-21 reporter | TCR act
9 | Cc1cccc(S(=O)(=O)c2cn(Cc3ccccc3)c3cc(N4CCC(C)CC4)c(F)cc3c2=O)c1 | -1% | 0% | nt
8 | O=C(O)C(SC(C(=O)O)c1ccccc1)c1ccccc1 (centres undefined) | 0% | nt | 5%
10 | Cc1cccc(C(=O)NNC(=O)c2cc3cc4ccccc4nc3s2)c1 | 5% | -17% | 2%

More results follow.
13) Oc1ccc(NCc2ccc(OCc3ccccc3Cl)cc2)cc1
14) CCC(C)Nc1nc(N)c([N+](=O)[O-])c(Nc2ccccc2OC)n1 (centres undefined)
15) C=CCNc1nc(N)c([N+](=O)[O-])c(Nc2ccccc2OC)n1
16) Cc1cc(N2CCN(C(C(=O)NC3CCCC3)c3ccc(-c4ccccc4)cc3)CC2)c2ccccc2n1 (centres undefined)
17) O=C(O)C1CCCCC1C(=O)Nc1ccccc1Nc1ccccc1 (centres undefined)
18) CCC(C)c1ccccc1NC(=O)COC(=O)c1ccc2[nH]c3c(c2c1)CCCC3 (centres undefined)

assay / entry | 13 | 14 | 15 | 16 | 17 | 18
miR-21 reporter | 1% | -8% | -2% | nt | 2% | 25%
Nrf2 activator | 7.9µM* | 5% | 2% | nt | 0% | 2%[9.22 µM]
Nrf2 block | ? | 15µM* | 21µM* | nt | nt | 21µM*
ClpP mod | -24% | nt | -1% | 5% | 25µM* | 32µM*
TCR act | nt | -3% | 6% | nt | -8% | -1%[46.1 µM]
A549 viability | ? | ? | -19% | nt | -18% | ?

19) COc1cccc(CN(C)C(=O)CN2C(=O)NC(c3ccccc3)(c3ccccc3)C2=O)c1OC
20) CCN1CCN(CCNC(=O)CCCCCn2c(=O)[nH]c3cc(C(=O)OC)ccc3c2=O)CC1
21) CCN1CCN(C(=O)CCCCCn2c(=O)[nH]c3cc(C(=O)OC)ccc3c2=O)CC1
22) COCCn1c(=O)[nH]c2cc(C(=O)Nc3cc(OC)c(OC)c(OC)c3)ccc2c1=O
23) COCCn1c(=O)[nH]c2cc(C(=O)OC)ccc2c1=O
24) CN(CC(=O)Nc1ccc(Cl)c(Cl)c1)CC(=O)N1CCCCCC1

assay / entry | 19 | 20 | 21 | 22 | 23 | 24
miR-21 reporter | nt | 1% | 1% | 16% | 2% | nt
Nrf2 activator | -1% | 0% | 0% | 0% | 0% | 1%
Nrf2 block | -23% | -3% | 5% | -22% | -2% | nt
ClpP mod | 0% | ? | 25µM* | nt | 28µM* | -1%
TCR act | -4% | -54% | 9% | 4% | -1% | nt
A549 viability | 1% | 11% | ? | 4% | 4% | nt

25) OC(Cc1ccnc2ccccc12)C(Cl)(Cl)Cl (centres undefined)
26) CCc1cccc(C)c1NC(=O)Cn1ncc2c3ccccc3n(Cc3ccccc3)c2c1=O
27) O=C(c1cc2cc(Cl)cc(Cl)c2oc1=O)N1CCOCC1
28) O=C(c1ccc(Cl)cc1Cl)N1CCOCC1
29) COc1cc2c(cc1OC)n(CC(=O)Nc1ccc(C)cc1C)c(=O)n1nc(-c3ccccc3)nc21
30) CCN(CC)C(=O)Oc1ccc2c(c1)O/C(=C\c1ccco1)C2=O

assay / entry | 25 | 26 | 27 | 28 | 29 | 30
miR-21 reporter | nt | -1% | -6% | nt | -19% | -42%
Nrf2 activator | -1% | -1% | -1% | 0% | 0% | 21%
Nrf2 block | 18µM* | 8% | 15% | -1% | -4% | ?
ClpP mod | nt | -9% | 22µM* | nt | -15% | nt
TCR act | 5% | nt | -7% | -5% | nt | 1%
A549 viability | -15% | 7% | 14% | -2% | 1% | 1%

31) CCC(=O)Oc1ccc2c(c1)O/C(=C\c1ccco1)C2=O
32) Cc1ccc(S(=O)(=O)N2CCCCC2)cc1C(=O)N1CCN(c2ccccn2)CC1
33) O=C(NCCCN1CCCC1=O)c1cc(S(=O)(=O)N2CCN(c3ccccc3)CC2)ccc1Cl
34) CC1CN(C(=O)c2cc(S(=O)(=O)N3CCN(c4ccccc4)CC3)ccc2Cl)CC(C)O1 (centres undefined)
35) O=C(c1ccc(S(=O)(=O)N2CCCCCC2)cc1)N1CCN(c2ccccn2)CC1
36) O=C(c1cc(S(=O)(=O)N2CCN(c3ccccc3)CC2)ccc1Cl)N1CCCCCCC1

assay / entry | 31 | 32 | 33 | 34 | 35 | 36
miR-21 reporter | -32% | 3% | nt | nt | -2% | nt
Nrf2 activator | 7.9µM* | -2% | 0% | 0% | 0% | 0%
Nrf2 block | -1% | 3% | 8% | ? | ? | 21µM*
ClpP mod | nt | 28µM* | 28µM* | 0% | 0% | 0%
TCR act | -8% | -3% | -2% | -18% | -11% | nt
A549 viability | -17% | 0% | 13% | -9% | -5% | -7%

37) O=S(=O)(c1ccc2ccccc2c1)N1CCN(c2ccc(O)cc2)CC1
38) Cc1ccccc1Cn1c(CN2CCC(C(=O)NCCc3ccccc3)CC2)cc2ccccc21
39) CCOc1ccc(CC(=O)NC2CC(=O)N(c3ccc4c(c3)OCCO4)C2)cc1 (centres undefined)
40) O=C1CCCC2=C1C(c1ccccc1Cl)N=C(Nc1nc3ccccc3o1)N2 (centres undefined)
41) O=C(c1cccc(S(=O)(=O)N2CCc3ccccc3C2)c1)N1CCN(c2ccc(O)cc2)CC1
42) O=S(=O)(c1ccc(Br)cc1)N1CCN(S(=O)(=O)c2ccc3c(c2)OCCO3)CC1
43) CC1CCCC(C)N1C(=O)Cn1cc(/C=C2/C(=O)Nc3ccccc32)c2ccccc21 (centres undefined)

assay / entry | 37 | 38 | 39 | 40 | 41 | 42 | 43
miR-21 reporter | nt | 8% | -1% | nt | -5% | nt | 26%
Nrf2 activator | 9% | 6% | 4% | nt | 0% | nt | 3%
Nrf2 block | 10µM* | nt | nt | -7% | ? | 16% | 18µM*
ClpP mod | 0% | -9% | -2% | nt | 32µM* | nt | -2%
TCR act | nt | nt | nt | nt | -4%[46.1 µM] | nt | 1%
A549 viability | -1% | -23% | 1% | -1% | -11% | -3% | 16µM*

Screens as filed in PubChem.
